The entries are a selection whose mix differs from that of the whole data set. Some salts and complexes are drawn in separate pieces, as the source files them; their charges need not balance. Active and inactive are the calls of the source.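 The calls were made as follows: active = mean inhibition across replicates at least about 35%, with every replicate also reaching that limit (limit read from the data); inconclusive = only one of the two criteria met; inactive = neither criterion met.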
Molecular target: Caspase-6 (Homo sapiens) (UniProt P55212)
Experiment: inhibition of CASP6 peptide cleavage – biochemical, VEID-R110 fluorescence, single point, set 2, primary screen (AID 686996);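 also: 0% = median of neutral control wells and 100% = no fluorescence left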
Conditions: purified caspase-6, Z-VEID-R110 cleavage fluorescence; at 12.5 µM; stronger effect = higher value

The chains behind the UniProt entries cited, without tags or fusion partners. Residues count along the entry.
UniProt P55212, 24-179 limits assumed: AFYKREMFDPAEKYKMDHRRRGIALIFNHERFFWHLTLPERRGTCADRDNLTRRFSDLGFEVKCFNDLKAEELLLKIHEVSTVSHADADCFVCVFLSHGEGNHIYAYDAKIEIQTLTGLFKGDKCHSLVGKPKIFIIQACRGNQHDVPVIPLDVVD
UniProt P55212, 194-293 limits assumed: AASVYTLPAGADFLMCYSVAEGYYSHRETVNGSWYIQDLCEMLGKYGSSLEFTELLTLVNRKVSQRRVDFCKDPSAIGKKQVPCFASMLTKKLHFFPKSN

| SMILES | inhibition |
| --- | --- |
| COc1ccc(NP(C)(=O)Oc2ccccc2OC)cc1 (stereo unspecified) | inactive: -0.957% |
| Cc1c(C(c2ccc3c(c2)OCO3)c2c(C)n(C)n(-c3ccccc3)c2=O)c(=O)n(-c2ccccc2)n1C.O=[N+]([O-])c1cc([N+](=O)[O-])c(O)c([N+](=O)[O-])c1 | inactive: 1.46% |
| O=[N+]([O-])c1ccc(OP2(=O)COCCO2)cc1 (stereo unspecified) | inactive: 2.81% |
| Cc1cc(-c2cccc3ccccc23)c(C)cn1.O=[N+]([O-])c1cc([N+](=O)[O-])c(O)c([N+](=O)[O-])c1 | inactive: 7.68% |
| O=[N+]([O-])c1cc([N+](=O)[O-])c(NCC2CCS(=O)(=O)C2)c([N+](=O)[O-])c1 (stereo unspecified) | inactive: 1.22% |
| CCOP(=O)(CC)OCC | inactive: -1.07% |
| CP(=O)(Nc1ccc(SC(F)(F)F)cc1)Oc1ccc(F)cc1 (stereo unspecified) | inactive: 2.33% |
| O=[N+]([O-])c1cc([N+](=O)[O-])c(C(F)(F)F)c([N+](=O)[O-])c1O | inactive: 1.68% |
| CP(=O)(Nc1ccccc1F)Oc1ccccc1 (stereo unspecified) | inactive: 0.413% |
| CC(C)c1ccc(OP(C)(=O)Nc2ccc(SC(F)(F)F)cc2)cc1 (stereo unspecified) | inactive: 0.84% |
| O=[N+]([O-])c1cc([N+](=O)[O-])c(Nc2ccc(Cl)cc2)c([N+](=O)[O-])c1 | inactive: -2.62% |
| COc1ccc2c(c1O)-c1c(O)c(OC)cc3c1[C@H](C2)[N+](C)(C)CC3.O=[N+]([O-])c1cc([N+](=O)[O-])c([O-])c([N+](=O)[O-])c1[O-] | inactive: 6.3% |
| O=C(OC1CN2CCC1CC2)c1ccc([N+](=O)[O-])cc1 (stereo unspecified) | inactive: -53.7% |
| O=C(OCCN1CCN(CCOCc2ccccc2)CC1)C(O)(c1ccccc1)c1ccccc1 | inactive: -5.67% |
| COc1ccc(OP(C)(=O)Nc2ccc(SC(F)(F)F)cc2)cc1 (stereo unspecified) | inactive: 2.39% |
| CCN(CC)CCCNc1ccccc1[N+](=O)[O-].O=[N+]([O-])c1cc([N+](=O)[O-])c(O)c([N+](=O)[O-])c1 | inactive: -15.3% |
| O=[N+]([O-])c1cc([N+](=O)[O-])c(OC2CCCCC2O)c([N+](=O)[O-])c1 (stereo unspecified) | inactive: 19.6% |
| CCCCCOc1ccc(NP(C)(=O)Oc2ccc(Cl)cc2Cl)cc1 (stereo unspecified) | inactive: -0.891% |
| Cc1c([N+](=O)[O-])cc([N+](=O)[O-])c(Br)c1[N+](=O)[O-] | inactive: 3.86% |
| Cc1cc(C)cc(OP(C)(=O)Nc2cccc(C(F)(F)F)c2)c1 (stereo unspecified) | inactive: 0.936% |
| O=C1C(O)=C([N+](=O)[O-])C(=O)C(O)=C1[N+](=O)[O-] | active: 63.1% |

| SMILES | inhibition |
| --- | --- |
| CP(=O)(OCCOc1ccccc1)OCCOc1ccccc1 | inactive: -0.793% |
| CP(=O)(Nc1ccc(Cl)cc1Cl)Oc1ccccc1 (stereo unspecified) | inactive: -3.23% |
| CCCCCCCCCCCCCCCC1C[N+](C)(C)CCOP(C)(=O)O1 (stereo unspecified) | inactive: -214% |
| COc1ccccc1OP(C)(=O)Nc1ccc(Br)cc1 (stereo unspecified) | inactive: 0.816% |
| O=[N+]([O-])c1cc([N+](=O)[O-])c(Nc2ccccn2)c([N+](=O)[O-])c1 | inactive: 10.3% |
| O=C(OCCCN1CCCC1)C(O)(c1ccccc1)C1CCCCC1 (stereo unspecified) | inactive: -5.69% |
| CCc1ccc(OP(C)(=O)Nc2cccnc2)cc1 (stereo unspecified) | inactive: 6.19% |
| CN(C)C(=O)c1c([N+](=O)[O-])cc([N+](=O)[O-])cc1[N+](=O)[O-] | inactive: -0.816% |
| COc1ccccc1OP(C)(=O)Nc1ccccc1Br (stereo unspecified) | inactive: -2.52% |
| CCOC(=O)c1ccc(NP(C)(=O)Oc2ccc(Cl)cc2)cc1 (stereo unspecified) | inactive: 6.77% |
| Nc1ccc2c(ccc3cccnc32)n1.O=[N+]([O-])c1cc([N+](=O)[O-])c(O)c([N+](=O)[O-])c1 | inactive: -0.55% |
| CP(=O)(Nc1ccccc1Br)Oc1ccccc1 (stereo unspecified) | inactive: -0.486% |
| COc1ccccc1OP(C)(=O)Nc1ccccc1 (stereo unspecified) | inactive: -2.69% |
| CCc1ccc(OP(C)(=O)N2CCN(c3ccc([N+](=O)[O-])cc3)CC2)cc1 (stereo unspecified) | inactive: 4.05% |
| CP(=O)(NC(=O)Nc1ccccc1)Oc1ccccc1 (stereo unspecified) | inactive: 2.53% |
| CP(=O)(Oc1ccccc1)OC(c1ccccc1)C(F)(F)F (stereo unspecified) | inactive: 5.69% |
| CP(=O)(Nc1ccc(SC(F)(F)F)cc1)Oc1ccc(Cl)cc1 (stereo unspecified) | inactive: 4.66% |
| CP(=O)(Nc1ccccn1)Oc1ccc(Cl)cc1 (stereo unspecified) | inactive: 0.821% |
| CCOC(=O)c1ccc(NP(C)(=O)Oc2ccc(OC)cc2)cc1 (stereo unspecified) | inactive: 0.906% |
| O=[N+]([O-])c1cc([N+](=O)[O-])c(O)c([N+](=O)[O-])c1.c1ccc(Oc2ccncc2)cc1 | inactive: -3.32% |
| CCN(CC)CCCOC(=O)C(O)(c1ccccc1)c1ccccc1 | inactive: -5.46% |

| SMILES | inhibition |
| --- | --- |
| COc1ccccc1-c1ccccn1.O=[N+]([O-])c1cc([N+](=O)[O-])c(O)c([N+](=O)[O-])c1 | inactive: 1.51% |
| O=[N+]([O-])c1ccc2c(c1)C=Nc1ccccc1O2 | inactive: -2.07% |
| Cc1cccc(C)c1OP(C)(N)=O (stereo unspecified) | inactive: -3.03% |
| CC(C)(C)c1ccc(OP(C)(=O)Nc2ccc(SC(F)(F)F)cc2)cc1 (stereo unspecified) | inactive: -2.71% |
| Cc1cc(C)cc(OP(C)(N)=O)c1 (stereo unspecified) | inactive: -5.18% |
| COc1ccccc1OP(C)(=O)Nc1cc(Cl)ccc1C (stereo unspecified) | inactive: 1.12% |
| O=C(O)c1cccc(Nc2c([N+](=O)[O-])cc([N+](=O)[O-])cc2[N+](=O)[O-])c1 | inactive: 6.72% |
| CCOC(=O)c1ccc(NP(C)(=O)Oc2cc(C)cc(C)c2)cc1 (stereo unspecified) | inactive: 0.352% |
| Cc1cc(C)cc(OP(C)(=O)Nc2ccc(C)cc2C)c1 (stereo unspecified) | inactive: 3.46% |
| COc1ccccc1OP(C)(=O)Nc1cccc(Br)c1 (stereo unspecified) | inactive: -0.989% |
| Cc1cc(C)cc(OP(C)(=O)Nc2ccccn2)c1 (stereo unspecified) | inactive: -1.13% |
| CN(Cc1cccnc1)C(=O)COc1ccc(Cl)c(Cl)c1.O=[N+]([O-])c1cc([N+](=O)[O-])c(O)c([N+](=O)[O-])c1 | inactive: 1.73% |
| O=[N+]([O-])c1cc([N+](=O)[O-])c(-n2nnc3ccccc32)c([N+](=O)[O-])c1 | inactive: 4.8% |
| O=[N+]([O-])c1cc([N+](=O)[O-])c(-c2cnn(-c3ccccc3)c2)c([N+](=O)[O-])c1 | inactive: -1.61% |
| CCOC(=O)C(CC)C1=NC(C)(C)Cc2ccccc21.O=[N+]([O-])c1cc([N+](=O)[O-])c(O)c([N+](=O)[O-])c1 (stereo unspecified) | inactive: -1.07% |
| O=[N+]([O-])c1cc([N+](=O)[O-])c(Nc2nnnn2CCO)c([N+](=O)[O-])c1 | inactive: 5.42% |
| COc1ccc(-c2ccccn2)cc1.O=[N+]([O-])c1cc([N+](=O)[O-])c(O)c([N+](=O)[O-])c1 | inactive: -1.01% |
| CCCOc1ccc(NP(C)(=O)Oc2ccc(Cl)cc2)cc1 (stereo unspecified) | inactive: 0.891% |
| CN1CCCCC1COC(=O)C1(O)c2ccccc2CCc2ccccc21 (stereo unspecified) | inactive: -0.209% |

Reference: PubChem BioAssay AID686996 (Broad Institute, 2013)
